Experimental data reported in patent publication US20120308537A1, “Use Of Collagen Type VII For Maintaining And Re-Inducing Osteogenic Abilities Of Mesenchymal Stem Cells” (UNIVERSITY OF SOUTHERN CALIFORNIA, priority 2009, published 2012).

Experiments:
[1] = test system: ectopic osteogenesis induction; assay: ALP assay of ectopic osteogenesis induction, intramuscular implantation in rat; type: in vivo; conditions: 4 weeks
Protocol: (§1) High concentration of BMP-2 was used as positive control. The negative control was carrier only, which consisted of collagen sponge (bovine). The samples were administered to rat via intramuscular implantation on ectopic sites. The experiment lasted for 4 weeks. Two different preparations (C7 and C7′) were tested. The test dosages were: 10, 20 and 40 μg. The results were analyzed by alkaline phosphotase assay (ALP) and histology for bone formation.

[2] = test system: ectopic osteogenesis induction; assay: Histology analysis of ectopic osteogenesis induction (bone formation), intramuscular implantation in rat; type: in vivo; conditions: 4 weeks
Protocol: as §1

[3] = 1 ug BMP-2 alone (0 ug C7), Rat A
[4] = 3 ug BMP-2 alone (0 ug C7′), Rat B, positive control

B1: BMP-2: bone morphogenetic protein 2; high concentration used as positive control (protein, UniProt P12643 283-396, looked up)
Bone morphogenetic protein 2: QAKHKQRKRLKSSCKRHPLYVDFSDVGWNDWIVAPPGYHAFYCHGECPFPLADHLNSTNHAIVQTLVNSVNSKIPKACCVPTELSAISMLYLDENEKVVLKNYQDMVVEGCGCR
Question: B1 was tested. Which ALP [1, 3] did it give?
Answer: The ALP was 0.163.

Question: What about the ALP/Pro [1, 3] of the same molecule?
Answer: The ALP/Pro was 0.877.

Question: And the ALP [1, 4]?
Answer: The ALP was 0.476.

Question: And the ALP/Pro ([1]; 3 ug BMP-2 alone (0 ug C7′), Rat B)?
Answer: Its ALP/Pro is 3.571.

Question: And the Bone score [2, 3]?
Answer: The Bone score was 0.

Question: What about the Bone score [2, 4] of the same molecule?
Answer: The Bone score was 4.
